Assay [1] addresses phospho-BTK (Mus musculus, UniProt P35991). The assay is described as follows: PK/PD correlation in DBA1 mice (phospho-BTK in whole blood after oral dosing). How it is done:
Mice were dosed orally (PO) with test compound in CMC-Tween and killed by CO2 asphyxiation at various times after dosing. Heparinized whole blood was immediately collected by cardiac puncture and split into two samples. One sample was used to quantify the amount of test compound present and the other was lysed in MSD lysis buffer in the presence of phosphatase inhibitors. Heparinized whole blood from cardiac punctures of vehicle (CMC-Tween) dosed mice are lysed either in the presence (high control) or absence (low control) of phosphatase inhibitors. Lysed whole blood samples were analyzed for phospho-BTK as described above. The percent inhibition of phospho-BTK in each whole blood sample from dosed mice was calculated as follows: (1−((pBTK(x+PPi)−pBTK(vehicle−PPi))/(pBTK(vehicle+PPi))))*100, where pBTK(x+PPi) is the ECL signal for whole blood from each test compound-treated mouse, pBTK(vehicle−PPi) is the average ECL signal of whole blood from vehicle-treated mice lysed in the absence of phosphatase inhibitors (low control) and pBTK(vehicle+PPi) is the average ECL signal of whole blood from vehicle-treated mice lysed in the presence of phosphatase inhibitors (high control).
Mice were dosed orally with either vehicle, 0.1, 0.3, 1, 3, 10 or 30 mg drug/kg body weight and killed after one hour. […] The EC50 value was determined to be 218 nm, with a Hill slope of 0.35 and R^2 value of 0.61.

Amino acid sequences for entries named in this document (tags omitted).
UniProt P35991, whole entry: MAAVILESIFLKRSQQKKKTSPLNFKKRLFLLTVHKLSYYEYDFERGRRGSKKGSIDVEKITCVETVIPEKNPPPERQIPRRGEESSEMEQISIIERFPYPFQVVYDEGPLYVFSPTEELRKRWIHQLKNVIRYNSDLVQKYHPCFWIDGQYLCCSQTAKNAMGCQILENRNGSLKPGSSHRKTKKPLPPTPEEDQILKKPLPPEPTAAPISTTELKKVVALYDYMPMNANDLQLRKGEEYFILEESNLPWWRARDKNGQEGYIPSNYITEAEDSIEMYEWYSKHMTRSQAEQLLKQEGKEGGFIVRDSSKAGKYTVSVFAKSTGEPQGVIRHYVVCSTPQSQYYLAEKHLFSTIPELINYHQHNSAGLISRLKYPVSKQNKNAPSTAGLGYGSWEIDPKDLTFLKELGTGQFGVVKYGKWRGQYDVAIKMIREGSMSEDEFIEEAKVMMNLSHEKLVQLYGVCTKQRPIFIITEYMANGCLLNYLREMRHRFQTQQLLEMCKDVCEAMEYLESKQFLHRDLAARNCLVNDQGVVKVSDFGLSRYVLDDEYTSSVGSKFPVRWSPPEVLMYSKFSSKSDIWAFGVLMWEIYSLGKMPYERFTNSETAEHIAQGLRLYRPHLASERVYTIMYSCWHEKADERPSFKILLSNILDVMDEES
UniProt Q06187, whole entry: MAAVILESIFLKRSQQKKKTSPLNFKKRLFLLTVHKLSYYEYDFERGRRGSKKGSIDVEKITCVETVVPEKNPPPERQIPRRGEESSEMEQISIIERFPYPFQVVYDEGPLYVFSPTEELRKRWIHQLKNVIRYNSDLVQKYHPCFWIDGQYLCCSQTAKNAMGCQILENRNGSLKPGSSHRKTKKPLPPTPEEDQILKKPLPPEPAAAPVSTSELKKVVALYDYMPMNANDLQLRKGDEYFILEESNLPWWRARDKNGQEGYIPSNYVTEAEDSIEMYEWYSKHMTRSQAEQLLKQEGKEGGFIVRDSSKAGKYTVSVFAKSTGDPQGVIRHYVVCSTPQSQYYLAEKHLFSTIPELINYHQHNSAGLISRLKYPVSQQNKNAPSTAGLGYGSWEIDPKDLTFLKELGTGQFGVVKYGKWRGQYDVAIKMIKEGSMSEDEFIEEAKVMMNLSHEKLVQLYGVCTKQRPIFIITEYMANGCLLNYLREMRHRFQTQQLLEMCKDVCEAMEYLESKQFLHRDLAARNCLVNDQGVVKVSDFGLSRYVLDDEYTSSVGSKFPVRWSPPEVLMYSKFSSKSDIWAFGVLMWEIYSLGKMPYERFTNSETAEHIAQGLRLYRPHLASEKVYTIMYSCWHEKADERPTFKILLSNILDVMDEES

Assay [2] has as its system BTK phosphorylation. The assay is described as follows: In vitro PD assay in whole blood from Cynomolgus monkey. Particulars: read-out: IC50 (concentration that inhibits 50% of ECL signal); whole blood from a Cynomolgus monkey, FIG. 4. How it is done:
Heparinized venous blood from a Cynomolgus monkey was purchased from Bioreclamation, Inc. and shipped overnight. Whole blood was aliquoted into 96-well plate and “spiked” with serial dilutions of Compound A in DMSO or with DMSO without drug. The final concentration of DMSO in all wells was 0.1%. The plate was incubated at 37° C. for 30 min. Lysis buffer containing protease and phosphatase inhibitors was added to the drug-containing samples and one of the DMSO-only samples (+PPi, high control), while lysis buffer containing protease inhibitors was added to the other DMSO-only samples (−PPi, low control). All of the lysed whole blood samples were subjected to the total BTK capture and phosphotyrosine detection method described in Example 30. ECL values were graphed in Prism and a best-fit curve with restrictions on the maximum and minimum defined by the +PPi high and −PPi low controls was used to estimate the drug concentration that results in 50% inhibition of ECL signal by interpolation.

For assay [3], the target named is BTK phosphorylation (Mus musculus, UniProt P35991). The assay is described as follows: In vitro inhibition of BTK activity in mouse whole blood (pBTK, MSD ECL). How it is done: Anti-rabbit MSD plates (Meso Scale Discovery, Rockville, Md.) are coated with 35 uL/well of rabbit anti-BTK C82B8 (Cell Signaling Technology, Danvers, Mass.) diluted 1:50 in PBS. Plates are incubated for 2 hours±1 hour at room temp, shaking (setting 3-5) or ON at 4° C. Plates are blocked with MSD Blocker A (Meso Scale Discovery, Rockville, Md.) using 3% MSD Blocker A in TBST. Coated plates are first washed 3× with 250 uL/well TBST followed by addition of 200 uL/well 3% Blocker A/TBST. Plates are blocked for >2 hour at RT, shaking or ON at 4° C.
Whole blood is collected from DBA/1 mice in 16×100 sodium heparin tubes (Becton Dickinson, Cat No. 367874). Blood from multiple DBA/1 mice is pooled. 96 uL of whole blood per well is aliquotted into a 96-round bottom plate changing tips each time. 4 uL diluted test compound is added to each sample, mixed, and incubated for 30 min at 37° C.
For serial dilutions of test compound, 1000× plate is produced with serial dilutions of test compound in 100% DMSO. […]
To develop and read the plates, 1× Read Buffer in dH2O is prepared from 4× stock. […] 150 uL of 1×MSD Read Buffer is added to each well. Plates are read in a SECTOR Imager 6000 (Meso Scale Discovery, Rockville, Md.). […]

Assay [4] concerns the target BTK phosphorylation (Homo sapiens, UniProt Q06187). The assay is described as follows: In vitro PD assay in whole blood from healthy donors or SLE patients. How it is done:
Heparinized venous blood was purchased from Bioreclamation, Inc. or SeraCare Life Sciences and shipped overnight. Whole blood was aliquoted into 96-well plate and “spiked” with serial dilutions of test compound in DMSO or with DMSO without drug. The final concentration of DMSO in all wells was 0.1%. The plate was incubated at 37° C. for 30 min. Lysis buffer containing protease and phosphatase inhibitors was added to the drug-containing samples and one of the DMSO-only samples (+PPi, high control), while lysis buffer containing protease inhibitors was added to the other DMSO-only samples (−PPi, low control). All of the lysed whole blood samples were subjected to the total BTK capture and phosphotyrosine detection method described in Example 30. ECL values were graphed in Prism and a best-fit curve with restrictions on the maximum and minimum defined by the +PPi high and −PPi low controls was used to estimate the test compound concentration that results in 50% inhibition of ECL signal by interpolation.
Heparinized venous blood from healthy controls (HC) was obtained from in-house donors. Blood from a patient diagnosed with Systemic Lupus Erythematosis (SLE) was purchased from Bioreclamation, Inc. and shipped overnight. The assay was carried out as described above in Example 32, using Compound A as a test drug compound.

Read-outs that look alike come from different tables or passages of the source.

Consider `Cc1cc(-c2ccnc(Nc3cnn(C)c3)n2)ccc1CNC(=O)c1cnc(C(C)(C)C)s1`, for which the Hill slope in assay [1] (fit of % inhibition of phospho-BTK versus plasma concentration, oral dosing, one hour) was 0.35. Moreover, the EC50 in assay [1] (read-out: in vivo EC50 (% inhibition of phospho-BTK versus plasma concentration), mice dosed orally 0.1-30 mg/kg, killed after one hour, best-fit curve) worked out at 218 nM. Also, the IC50 in assay [2] was 589 nM; in assay [3] (read-out: IC50 (drug concentration that produces a 50% inhibition of BTK phosphorylation), pooled heparinized mouse whole blood, 30 min at 37° C., interpolated from best-fit curve), 443 nM; in assay [4] (read-out: IC50 (concentration that inhibits 50% of ECL signal), whole blood from a SLE patient, FIG. 3C) it was 1700 nM; in assay [4] (read-out: IC50 (concentration that inhibits 50% of ECL signal), whole blood from a healthy control, FIG. 3A), 400 nM; in assay [4] (read-out: average IC50 value, whole blood from 19 healthy controls, FIG. 3B), 401 nM. Moreover, the “inhibition of BTK phosphorylation” value in assay [3] (mouse whole blood, FIG. 1) is “inhibited BTK phosphorylation in a dose dependent manner”.

These data come from patent publication US10280169B2, “Biaryl bruton's tyrosine kinase inhibitors” (BIOGEN MA INC., priority 2013, dated 2019).
